This passage reports Ki results from patent US5804593A, “α-Amino sulfonyl hydroxamic acids as matrix metalloproteinase inhibitors” (Pharmacia & Upjohn Company, priority 1997, dated 1998).

A word on the Ki: it is a dissociation constant, usually derived from enzyme kinetics or from competition with a known ligand. Higher therefore signals weaker binding.

The target in the test is Gelatinase. The test can be described thus: particle concentration fluorescence assay of MMP inhibition in vitro. Format: biochemical. Particulars: fluorescein/biotin-labelled substrate, avidin-coated particles, room temperature, pH 7.5. How it is done:
Inhibitory activity is evaluated in one or more of the MMP enzymes (stromelysin, gelatinase, and collagenase) in vitro using particle concentration fluorescence assay. An inhibitor binds to MMP enzymes which prevents the degradation of a substrate by stromelysin, gelatinase, or collagenase. The substrate has attached to it a fluorescein and a biotin moiety. The intact substrate then binds to an avidin-coated particle via the biotin moiety. Once the particle is washed and dried, a fluorescent signal is generated since the fluorescent group is attached to the particle. Without an inhibitor present, the substrate is degraded by MMP enzymes and the fluorescein group is removed, therefore, no fluorescent signal can be detected. Testing compounds are dissolved in DMSO to the desired concentration, then the solutions are diluted to 1:5 with MMP buffer (50 mM Tris-HCl, pH 7.5; 150 mM NaCl; 0.02% NaN3). Serial two-fold dilutions of each compound are prepared. A concentrated, activated enzyme solution is transferred into each plate of the testing compounds, and the mixture is incubated at room temperature for 15 minutes. Thawed MMP substrate is then added into all plates, and the plates are incubated in the dark for 1-3 hours at room temperature. […] After 15 minutes, the fluorescence values are measured following filtration and washing of the beads. Ki values are then calculated.

Regarding `COc1ccc(S(=O)(=O)N[C@@H](C(=O)NO)C(C)C)cc1` [Example 8, N-hydroxy-2(R)-[(4-methoxybenzenesulfonyl)amino]-3-methyl butanamide], affinity was put at a Ki of 9.1 nM.
